Results: US9371363B2, “Peptides and their use” (Novabiotics Limited, priority 2007, dated 2016)

How the values were obtained:
Format in all cases: cell-based
P. acnes = system: P. acnes
Method: (§1) Broth Dilution Antibacterial Susceptibility Testing
(§2) The sensitivity of relevant bacterial strains to the peptides (was determined using Clinical Laboratory Standard Institute (CLSI; formerly NCCLS) Approved Standards. Bacterial susceptibility was tested using “Methods for Dilution Antimicrobial Susceptibility Tests for Bacteria That Grow […]; Approved Standard—Seventh Edition M7-A7”

S. aureus = system: S. aureus
Method: as §1, §2

Ps. aeruginosa = system: Ps. aeruginosa
Method: as §1, §2

Row | Compound | Minimum Inhibitory Concentration, antimicrobial activity, P. acnes (P. acnes) [mM] | Minimum Inhibitory Concentration, antimicrobial activity, S. aureus (S. aureus) [mM] | Minimum Inhibitory Concentration, antimicrobial activity, Ps. aeruginosa (Ps. aeruginosa) [mM]
1 | N=C(N)NCCC[C@H](NC(=O)[C@H](CCCNC(=N)N)NC(=O)[C@H](CCCNC(=N)N)NC(=O)[C@H](CCCNC(=N)N)NC(=O)[C@H](CCCNC(=N)N)NC(=O)[C@H](CCCNC(=N)N)NC(=O)[C@H](CCCNC(=N)N)NC(=O)[C@H](CCCNC(=N)N)NC(=O)[C@H](CCCNC(=N)N)NC(=O)[C@H](CCCNC(=N)N)NC(=O)[C@H](CCCNC(=N)N)NC(=O)[C@H](CCCNC(=N)N)NC(=O)[C@H](CCCNC(=N)N)NC(=O)[C@H](CCCNC(=N)N)NC(=O)[C@@H](N)CCCNC(=N)N)C(=O)O [NP319, RRRRRRRRRRRRRRR (SEQ ID NO: 15)] | <0.0156 | 0.125 | 
2 | N=C(N)NCCC[C@H](NC(=O)[C@H](CCCNC(=N)N)NC(=O)[C@H](CCCNC(=N)N)NC(=O)[C@H](CCCNC(=N)N)NC(=O)[C@H](CCCNC(=N)N)NC(=O)[C@H](CCCNC(=N)N)NC(=O)[C@H](CCCNC(=N)N)NC(=O)[C@H](CCCNC(=N)N)NC(=O)[C@H](CCCNC(=N)N)NC(=O)[C@H](CCCNC(=N)N)NC(=O)[C@H](CCCNC(=N)N)NC(=O)[C@H](CCCNC(=N)N)NC(=O)[C@H](CCCNC(=N)N)NC(=O)[C@H](CCCNC(=N)N)NC(=O)[C@@H](N)CCCNC(=N)N)C(=O)O [NP352, RRRRRRRRRRRRRRR (SEQ ID NO: 15)] |  |  | 0.0625
